{"sequences": {"note": "Sequences of proteins named here, by UniProt entry; tags and fusion partners are left off.", "UniProt P0DMS8, whole entry": "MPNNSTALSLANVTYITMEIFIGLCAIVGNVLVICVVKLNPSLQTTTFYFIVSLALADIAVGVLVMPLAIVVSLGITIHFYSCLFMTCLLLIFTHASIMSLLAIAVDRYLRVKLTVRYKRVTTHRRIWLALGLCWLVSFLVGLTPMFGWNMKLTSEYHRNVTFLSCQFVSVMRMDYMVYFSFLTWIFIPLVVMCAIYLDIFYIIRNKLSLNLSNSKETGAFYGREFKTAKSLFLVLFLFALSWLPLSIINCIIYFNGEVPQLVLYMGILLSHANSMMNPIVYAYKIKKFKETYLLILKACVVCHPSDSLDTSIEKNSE"}, "source": "paper PMC7105940", "about": "“Safety evaluation of FM101, an A3 adenosine receptor modulator, in rat, for developing as therapeutics of glaucoma and hepatitis” (EXCLI Journal, 2020)", "target": "T1, A3 adenosine receptor (human A3AR) (Homo sapiens, UniProt P0DMS8)", "T1 construct": "gene ADORA3", "experiment": "PathHunter beta-arrestin translocation antagonism vs 2-Cl-IB-MECA in CHO-K1 cells expressing human A3AR; also cAMP HTRF agonism (EC50 […])", "assay_type": "cell-based"}
{"molecule": "O[C@@H]1[C@H](O)CS[C@H]1n1cnc2c(NCc3cccc(Cl)c3)nc(Cl)nc21", "note": "[FM101, [(2R,3R,4S)-2-[2-chloro-6-(3-chlorobenzylamino)-9H purine-9-yl]-tetrahydrothiophene-3,4-diol]]", "values": [{"measurement": "IC50", "result": 44, "unit": "nM"}]}
